Assays:
Type in all cases: biochemical
[1] = biological target: human recombinant caspase-3 (Homo sapiens, UniProt P42574); assay: In vitro high throughput caspase-3 assay; conditions: for Percent Activity: percentage of the positive control, 20-250 μM test compound, lower = better inhibition, negative = better than control caspase inhibitor; for IC50: fixed substrate concentration of 55 μM, inhibitors 75 to 0.067 μM in duplicate; for Ki: read-out: Ki(app), calculated from IC50 according to Equation 1
TPCK-trypsin = TPCK-trypsin (Bos taurus, UniProt P00760); assay: Cross-reactivity protease inhibition assay (QuantiCleave), trypsin; conditions: ratio Abs450nm with inhibitor / without inhibitor; 100 μM compound
Method: (§1) To evaluate whether inhibition was specific to caspase-3 or applicable to other cysteine proteases or other proteases, inhibitor molecules were assayed for their capacity to inhibit additional non-caspase proteases. Three proteases, TPCK-trypsin, α-chymotrypsin and papain, were used to test for protease inhibition cross-reactivity. Protease inhibition assays were performed in 96-well flat-bottomed micro-titer plates with the QuantiCleave™ protease assay kit (Pierce, Rockford, Ill.) according to the manufacturer's instructions. Briefly, the assay conditions contained 100 μM compound, 2 mg/mL of succinylated-casein and 0.15 mg/mL of the protease. The assay incubated in a final volume of 150 μLs 0.05 M sodium borate pH 8.5 buffer (NaB-buffer) for 20 minutes at 25° C. […] Absorbance values at 450 nm were read in an Emax (Molecular Devices, Sunnyvale, Calif.) micro plate reader. […]
(§2) Relative activities in the presence of inhibitor were calculated by taking the ratio of absorbance for a reaction containing inhibitor to the absorbance for a reaction without inhibitor. Significant inhibition was determined by testing the null hypothesis of equivalence between the mean absorbance of reactions containing inhibitor and the mean absorbance of reactions without inhibitor (2 tailed t-test, 2 df). […]

By UniProt entry, the sequences of proteins in these tests, tags left out. Residues count along the entry.
UniProt P42574, 29-175 limits assumed: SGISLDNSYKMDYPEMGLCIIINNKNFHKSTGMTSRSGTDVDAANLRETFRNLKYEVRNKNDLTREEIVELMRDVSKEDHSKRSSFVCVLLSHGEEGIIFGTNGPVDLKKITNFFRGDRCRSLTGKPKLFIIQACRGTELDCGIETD
UniProt P42574, 176-277 limits assumed: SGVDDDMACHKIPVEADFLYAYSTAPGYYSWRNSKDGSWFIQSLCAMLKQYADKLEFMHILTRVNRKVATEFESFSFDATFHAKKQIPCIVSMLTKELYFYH
UniProt P00760, 24-246 limits assumed: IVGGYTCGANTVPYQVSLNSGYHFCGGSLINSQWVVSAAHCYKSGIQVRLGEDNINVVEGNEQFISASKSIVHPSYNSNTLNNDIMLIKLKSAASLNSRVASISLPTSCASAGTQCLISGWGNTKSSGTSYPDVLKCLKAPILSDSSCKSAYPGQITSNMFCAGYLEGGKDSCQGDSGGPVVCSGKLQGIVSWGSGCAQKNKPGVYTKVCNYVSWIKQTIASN
UniProt P00784, 134-345 limits assumed: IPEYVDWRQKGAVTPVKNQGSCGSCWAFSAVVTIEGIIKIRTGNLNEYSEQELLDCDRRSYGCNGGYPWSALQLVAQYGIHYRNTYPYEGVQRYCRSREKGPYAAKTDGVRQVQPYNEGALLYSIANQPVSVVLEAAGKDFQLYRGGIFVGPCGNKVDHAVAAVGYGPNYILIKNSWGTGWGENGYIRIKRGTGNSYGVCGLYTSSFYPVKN

α-chymotrypsin = α-chymotrypsin (Bos taurus, UniProt P00766, DEL14-15/DEL147-148); assay: Cross-reactivity protease inhibition assay (QuantiCleave), chymotrypsin; conditions: ratio Abs450nm with inhibitor / without inhibitor; 100 μM compound
Method: as §1, §2

papain = papain (Carica papaya, UniProt P00784); assay: Cross-reactivity protease inhibition assay (QuantiCleave), papain; conditions: ratio Abs450nm with inhibitor / without inhibitor; 100 μM compound
Method: as §1, §2

Percent Activity [1] [%] | IC50 [1] [µM] | Ki [1] [µM] | Compound | Caspase-3 Activity ([1]; relative activity as a fraction, values match Table II percent activity divided by 100) | TPCK-Trypsin Activity (TPCK-trypsin) | α-Chymotrypsin Activity (α-chymotrypsin) | Papain Activity (papain)
17.07 | 73.9 | 11.7 | O=c1cc(-c2ccc(O)cc2)oc2cc(O)c(O)c(O)c12 | – | – | – | –
– | – | – | O=c1c(O)cccc2cc(O)c(O)c(O)c12 | – | 0.998 | 0.988 | 0.935
12.65 | 1780 | 283 | O=c1c(-c2ccc3c(c2)OCCO3)coc2cc(O)cc(O)c12 | – | – | – | –

Compound | Percent Activity [1] [%] | IC50 [1] [µM] | Ki [1] [µM] | Caspase-3 Activity ([1]; relative activity as a fraction, values match Table II percent activity divided by 100) | TPCK-Trypsin Activity (TPCK-trypsin) | α-Chymotrypsin Activity (α-chymotrypsin) | Papain Activity (papain)
CC1=CC(=O)c2c(O)cccc2C1=O | 10.26 | – | – | 0.103 | 0.644 | 0.857 | 0.500
